Results on six molecules are retold here after patent publication EP2181998B1, “New benzothiazinone derivative and its use as antibacterial agent” (priority 2006, dated 2007).

Structures are written as SMILES. Values after ≈ are worked out from the molar mass of the structure shown. Read-outs that look alike come from different tables or passages of the source.

This assay relates to M. tuberculosis H37Rv. Description: microbe, parasite or virus in culture. The note with it: Mycobacterium tuberculosis.

Molecule `O=c1nc(N2CCC3(CC2)OCCO3)sc2c([N+](=O)[O-])cc(C(F)(F)F)cc12` [Compound 1, 2-(1,4-dioxa-8-azaspiro[4.5]dec-8-yl)-8-nitro-6-(trifluoromethyl)-1,3-benzothiazin-4-one] registered an MBC of 0.58 µg/mL (≈ 1.39 µM) and an MIC of 0.39 µg/mL (≈ 0.934 µM).

Regarding `CC1COC2(CCN(c3nc(=O)c4cc(C(F)(F)F)cc([N+](=O)[O-])c4s3)CC2)O1` (centres unmarked) [Compound 2, 2-(2-methyl-1,4-dioxa-8-azaspiro[4.5]dec-8-yl)-8-nitro-6-(trifluoromethyl)-1,3-benzothiazin-4-one], the MBC amounted to 0.58 µg/mL (≈ 1.34 µM) and the MIC worked out at 0.39 µg/mL (≈ 0.904 µM).

`CC1OC2(CCN(c3nc(=O)c4cc(C(F)(F)F)cc([N+](=O)[O-])c4s3)CC2)OC1C` (centres unmarked) [Compound 5, 2-(2,3-dimethyl-1,4-dioxa-8-azaspiro[4.5]dec-8-yl)-8-nitro-6-(trifluoromethyl)-1,3-benzothiazin-4-one] displayed an MBC of 0.58 µg/mL (≈ 1.3 µM) and an MIC of 0.39 µg/mL (≈ 0.876 µM).

Turning to `N#Cc1cc([N+](=O)[O-])c2sc(N3CCC4(CC3)OCCO4)nc(=O)c2c1` [Compound 9, 2-(1,4-dioxa-8-azaspiro[4.5]dec-8-yl)-8-nitro-4-oxo-1,3-benzothiazine-6-carbonitrile], the MBC worked out at 0.29 µg/mL (≈ 0.775 µM) and the MIC was 0.195 µg/mL (≈ 0.521 µM).

For the molecule `CC1COC2(CCN(c3nc(=O)c4cc(C#N)cc([N+](=O)[O-])c4s3)CC2)O1` (centres unmarked) [Compound 10, 2-(2-methyl-1,4-dioxa-8-azaspiro[4.5]dec-8-yl)-8-nitro-4-oxo-1,3-benzothiazine-6-carbonitrile], the MBC is 0.58 µg/mL (≈ 1.49 µM) and the MIC was found to be 0.39 µg/mL (≈ 1 µM).

In turn, `NNC(=O)c1ccncc1` [Isoniazid (INH), Isoniazid, reference compound] registered an MBC of 1.15 µg/mL (≈ 8.39 µM) and an MIC of 0.97 µg/mL (≈ 7.07 µM). Besides, the MBC (read-out: MBC (µg/mL) mean) was 1.15 µg/mL (≈ 8.39 µM). Further, the MIC (read-out: MIC (µg/mL) mean) is 0.97 µg/mL (≈ 7.07 µM).
